Laboratory results: US6472152B1 (priority 1998, dated 2002)

What was measured:
[1] = test system: Salmonella typhimurium TA104 pr1; assay: VITOTOX test, toxicity evaluated by pr1 S/N curves; details: for Toxic (pri): without S9-mix, within the dose-range tested
[2] = test system: TA104 recN2-4 and TA104 pr1 strain; assay: VITOTOX test, ratio of recN2-4 S/N over pr1 S/N (rec/pr1); details: without S9-mix; for concentration at which S/R's of rec/pri >1.5 MAX: ratio of maximal S/N values; for concentration at which S/R's of rec/pri >1.5 MEAN: ratio of mean S/N values
[3] = test system: Salmonella typhimurium TA104 recN2-4; assay: VITOTOX test, light production (S/N) in the recN2-4 tester strain; details: for concentration at which S/R > 2 (recN2 − 4): without S9-mix, maximal S/N, 60-240 min

O=C1c2cc([N+](=O)[O-])cc([N+](=O)[O-])c2-c2c1cc([N+](=O)[O-])cc2[N+](=O)[O-]
Toxic (pri) [1]: + | concentration at which S/R's of rec/pri >1.5 MAX [2]: 0.16 ppm | concentration at which S/R's of rec/pri >1.5 MEAN [2]: 0.04 ppm | concentration at which S/R > 2 (recN2 − 4) [3]: 0.08 ppm

CdCl2
Toxic (pri) [1]: +

H2O2
Toxic (pri) [1]: + | concentration at which S/R's of rec/pri >1.5 MAX [2]: 4 ppm | concentration at which S/R's of rec/pri >1.5 MEAN [2]: 2 ppm | concentration at which S/R > 2 (recN2 − 4) [3]: 2 ppm

K2Cr2O7
Toxic (pri) [1]: + | concentration at which S/R's of rec/pri >1.5 MAX [2]: 4 ppm | concentration at which S/R's of rec/pri >1.5 MEAN [2]: 4 ppm | concentration at which S/R > 2 (recN2 − 4) [3]: 4 ppm

ZnCl2
toxicity evaluation ([1]; light production, without S9mix): only the lowest dose appeared to be devoid of any toxicity | Toxic (pri) [1]: + | concentrations toxic for Salmonella typhimurium TA104 ([1]; without S9mix, FIG. 2): higher than 7.4 μM | dose neither genotoxic nor toxic ([3]; recN2-4 strain, FIG. 2): 3.7 µM
